This assay deals with T1, Usp14/26S proteasome complexes (Homo sapiens, UniProt P54578).
T1 construct: GST (N, cleaved yes); made in house; host or cells: E. coli Rosetta 2 (DE3) for Usp14
Nature of the assay: Ub-AMC hydrolysis by VS-proteasomes reconstituted with recombinant Usp14. Type of assay: biochemical. As to the method:
To test whether Usp14 is a potent inhibitor of human proteasomes, a purification procedure was developed to generate proteasomes that lack detectible levels of deubiquitinase Usp14 (modified from Wang et al., (2007), Biochemistry, 46, 3553-3565). Briefly, human proteasomes were affinity-purified on a large scale from a stable HEK293 cell line harboring HTBH-tagged hRpn11. The cells were Dounce-homogenized in lysis buffer (50 mM NaH2PO4 [pH 7.5], 100 mM NaCl, 10% glycerol, 5 mM MgCl2, 0.5% NP-40, 5 mM ATP, and 1 mM DTT) containing protease inhibitors. Lysates were cleared, then incubated with NeutrAvidin agarose resin (Thermo Scientific) overnight at 4° C. The beads were then washed with excess lysis buffer followed by the wash buffer (50 mM Tris-HCl [pH 7.5], 1 mM MgCl2 and 1 mM ATP). […]
Compounds were screened for Usp14/26S inhibition in 384-well low-volume plates in duplicate. […] Compounds over the cut-off of Z>5 were mostly autofluorescent and were therefore not counted. To exclude quenching compounds that only affect AMC fluorescence, 312 primary hits were tested for quenching of AMC amine, and pure quenchers were scored as false-positives and excluded from further analysis (FIG. 8B). Of the 63,052 compounds analyzed in the high-throughput screen, 215 were identified as true inhibitors of Usp14. […]

Chains of the proteins cited; added tags and fusions are not shown. Lines headed by an entry give the natural chain unless they say otherwise; changes in a name come on top.
UniProt P54578: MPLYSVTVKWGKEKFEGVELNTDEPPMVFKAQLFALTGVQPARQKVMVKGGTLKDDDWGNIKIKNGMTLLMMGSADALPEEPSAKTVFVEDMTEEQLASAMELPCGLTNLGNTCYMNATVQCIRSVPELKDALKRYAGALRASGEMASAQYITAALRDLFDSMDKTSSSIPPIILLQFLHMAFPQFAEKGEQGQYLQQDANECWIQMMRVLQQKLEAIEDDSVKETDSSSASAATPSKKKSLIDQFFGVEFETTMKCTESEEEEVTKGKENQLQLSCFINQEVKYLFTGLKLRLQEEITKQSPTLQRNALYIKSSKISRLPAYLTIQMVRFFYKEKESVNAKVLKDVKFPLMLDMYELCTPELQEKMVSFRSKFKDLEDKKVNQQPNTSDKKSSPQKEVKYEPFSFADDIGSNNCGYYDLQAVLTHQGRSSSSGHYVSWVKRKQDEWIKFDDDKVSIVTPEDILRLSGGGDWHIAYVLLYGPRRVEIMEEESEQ

Molecules are shown by their SMILES.

For `Cc1cc(C(=O)CN2CCCC2)c(C)n1-c1ccc(F)cc1` [IU1, 1-[1-(4-fluorophenyl)-2,5-dimethlypyrrol-3-yl]-2-pyrrolidin-1-ylethanone], the IC50 lay within 2 to 5 µM.

What is called IC50 is the concentration that gives 50% inhibition.

The values above are taken from patent publication US10351568B2, “Compositions and methods for enhancing proteasome activity” (President and Fellows of Harvard College, priority 2010, dated 2019).
